Measured values reported in patent US20240309073A1 (SERUM INSTITUTE OF INDIA PRIVATE, published 2024).

Legend:
EDIII protein of DV1 [1] = biological target: T1, EDIII protein of DV1 (Dengue virus serotype 1 (DV1), UniProt P17763 576-675); test: indirect ELISA on immobilised EDIII protein of DV1; formulation stored at 40° C., 21 days
T1 construct: domain: EDIII; also called EDIII protein of DV1 antigen

EDIII protein of DV1 [2] = biological target: T1, EDIII protein of DV1; test: indirect ELISA on immobilised EDIII protein of DV1; formulation stored at 40° C., 14 days
EDIII protein of DV1 [3] = biological target: T1, EDIII protein of DV1; test: indirect ELISA on immobilised EDIII protein of DV1; formulation stored at 40° C., 0 day
[4] = biological target: Dengue virus serotype DV3 (Dengue virus serotype 3 (DV3), UniProt Q6YMS4 281-773); test: cell-based or functional assay
[5] = biological target: T2, Dengue virus serotype DV1 (Dengue virus serotype 1 (DV1), UniProt P17763 281-775); test: cell-based or functional assay
EDIII protein of DV1 [6] = biological target: T1, EDIII protein of DV1; test: indirect ELISA on immobilised EDIII protein of DV1; formulation stored at 40° C., 42 days
EDIII protein of DV1 [7] = biological target: T1, EDIII protein of DV1; test: indirect ELISA on immobilised EDIII protein of DV1; formulation stored at 40° C., 28 days
[8] = biological target: T2, Dengue virus serotype DV1; test: cell-based or functional assay; remark: listed apart in the source
EDIII protein of DV1 [9] = biological target: T1, EDIII protein of DV1; test: indirect ELISA on immobilised EDIII protein of DV1; formulation stored at 40° C., 35 days

B1: Dengue (VIS513) Monoclonal antibody (antibody, human IgG1, kappa, V domains shown)
VH: QVQLVQSGAEVKKPGASVKVSCKAGFNIKDVYMSWVRQAPEQGLEWMGRIDPENGDTKYDPKLQGRVTMTADTSTNTAYMELRSLRSDDTAVYYCARGWEGFAYWGQGTLVTVSS
VL: DIVMTQSPASLAVSLGERATISCRASENVDKYGNSFMHWYQQKPGQPPKLLIYRASELQWGVPDRFSGSGSGTDFTLTISSLQAEDVAVYYCQRSNEVPWTFGQGTKLEIKR
notes: also called Dengue Mab (VIS513); Dv-Mab
- potency (%) by indirect ELISA (% Activity relative to reference standard) (EDIII protein of DV1 [1]): 96.2%
- potency (%) by indirect ELISA (% Activity relative to reference standard) (EDIII protein of DV1 [2]): 82.8%
- potency (%) by indirect ELISA (% Activity relative to reference standard) (EDIII protein of DV1 [3]): 70.3%
- EC50 (ng/ml) by PRNT assay; Batch 2, stored at 2-8° C., 3 months [4]: 24.1 ng/mL
- EC50 (ng/ml) by PRNT assay; Batch 1, stored at 2-8° C., 0 day [5]: 47.1 ng/mL
- EC50 (ng/ml) by PRNT assay; Batch 1, stored at 2-8° C., 3 months [5]: 49.7 ng/mL
- EC50 (ng/ml) by PRNT assay; Batch 1, stored at 2-8° C., 6 months [5]: 23.9 ng/mL
- EC50 (ng/ml) by PRNT assay; Batch 1, stored at 2-8° C., 9 months [5]: 24.1 ng/mL
- EC50 (ng/ml) by PRNT assay; Batch 2, stored at 2-8° C., 0 day [5]: 21 ng/mL
- EC50 (ng/ml) by PRNT assay; Batch 2, stored at 2-8° C., 3 months [5]: 21 ng/mL
- EC50 (ng/ml) by PRNT assay; Batch 2, stored at 2-8° C., 6 months [5]: 16.1 ng/mL
- EC50 (ng/ml) by PRNT assay; Batch 2, stored at 2-8° C., 9 months [5]: 29.4 ng/mL
- potency (%) by indirect ELISA (% Activity relative to reference standard) (EDIII protein of DV1 [6]): 90.8%
- potency (%) by indirect ELISA (% Activity relative to reference standard) (EDIII protein of DV1 [7]): 71.9%
- EC50 (ng/ml) by PRNT assay; Batch 1, stored at 25° C., 0 day [8]: 47.1 ng/mL
- EC50 (ng/ml) by PRNT assay; Batch 1, stored at 25° C., 30 days [8]: 29.8 ng/mL
- EC50 (ng/ml) by PRNT assay; Batch 2, stored at 25° C., 0 day [8]: 21 ng/mL
- EC50 (ng/ml) by PRNT assay; Batch 2, stored at 25° C., 30 days [8]: 28.3 ng/mL
- potency (%) by indirect ELISA (% Activity relative to reference standard) (EDIII protein of DV1 [9]): 89.7%
